The entries are a selection whose mix differs from that of the whole data set. Some salts or complexes appear as unconnected parts, following the source record. The source made the active and inactive calls. Calls come from the whole dose curve; as a rule, active = well fitted activation curve with a large enough effect; inconclusive = small, poorly fitted or top-dose-only effect; inactive = flat fitted curve, though single readings scatter; cell line not stated here.

A short description of the experiment: A Quantitative High throughput Screen to Identify Chemical Modulators of PINK1 Expression. Note: % of control where 0% means no effect; nearly all actives have a fitted effect of over 65% in size. The following applies: PINK1 immunofluorescence, high-content cytometry, 24 h; at 76.6 µM (top of the series) unless noted.
As to `CC(C)(C)OC(=O)N1CCC(N(C(=O)c2ccccc2)c2ccc(F)cc2)CC1`, the activation (PINK1 increase) is inactive: 2.14%.

Turning to `COc1ccc(C(=O)NCC2(N3CCCCC3)CCCCC2)c(OC)c1OC`, the activation (PINK1 increase) was inactive: -1.88%.

`CCC(c1nnnn1C1CCCC1)N1CCC(n2c(=O)[nH]c3ccccc32)CC1` (stereo unspecified): the activation (PINK1 increase) was inactive: 1.01%.

For the molecule `COc1ccc(C(=O)NCC2(N3CCCCC3)CCCCC2)cc1`, the activation (PINK1 increase) was inactive: 0.519%.

In the case of `O=C(NCC1(N2CCCCC2)CCCCC1)c1cccs1`, the activation (PINK1 increase) is inactive: -0.152%.

On to `CCCCn1nnnc1C(CC)N1CCC(n2c(=O)[nH]c3ccccc32)CC1` (stereo unspecified), for which the activation (PINK1 increase) was inactive: 0.45%.

Consider `CCCCn1nnnc1C(c1cccs1)N1CCC(n2c(=O)[nH]c3ccccc32)CC1` (stereo unspecified), for which the activation (PINK1 increase) was inactive: -1.34%.

`O=C(NCC1(N2CCCCC2)CCCCC1)c1ccc(=O)[nH]c1`: the activation (PINK1 increase) is inactive: 0.172%.

Turning to `Cc1cccc(NC2(C#N)CCN(Cc3ccccc3)CC2)c1`, the activation (PINK1 increase) is inactive: -0.0585%.

On to `CSc1ccccc1C(=O)NCC1(N2CCCCC2)CCCCC1`, for which the activation (PINK1 increase) is inactive: -0.165%.

`Cc1cc(C)cc(N(C(=O)c2ccccc2)C2CCN(C(=O)OC(C)(C)C)CC2)c1`: the activation (PINK1 increase) was inactive: 17.3%.

Regarding `O=C(NCC1(N2CCCCC2)CCCCC1)c1ccc(Cl)nc1`, the activation (PINK1 increase) is inactive: 1.74%.

Regarding `O=c1[nH]c2ccccc2n1C1CCN(C(c2ccccc2OC(F)(F)F)c2nnnn2C2CCCCC2)CC1` (stereo unspecified), the activation (PINK1 increase) was inactive: 8.59%.

`O=C(NCC1(N2CCOCC2)CCCCC1)c1cc2ccccc2o1`: the activation (PINK1 increase) is inactive: -2%.

For `COc1ccc(Cl)cc1C(=O)NCC1(N2CCOCC2)CCCCC1`, the activation (PINK1 increase) was inactive: 0.93%.

With `O=C1C(O)=C([N+](=O)[O-])C(=O)C(O)=C1[N+](=O)[O-]`, the activation (PINK1 increase) is inactive: 1.4%.

In the case of `O=C(NCC1(N2CCCCC2)CCCCC1)c1ccc(Cl)s1`, the activation (PINK1 increase) is inactive: 0.192%.

On to `N#CC1(Nc2ccccc2)CCN(Cc2ccccc2)CC1`, for which the activation (PINK1 increase) was inactive: -1.62%.

In the case of `O=C(OC1CN2CCC1CC2)C1c2ccccc2Oc2ccccc21` (stereo unspecified), the activation (PINK1 increase) is inactive: 0.0187%.

On to `O=c1[nH]c2ccccc2n1C1CCN(C(c2cc3ccccc3o2)c2nnnn2C2CCCCC2)CC1` (stereo unspecified), for which the activation (PINK1 increase) was inactive: 5.81%.

With `CCCCn1nnnc1C(c1ccc(OC)cc1)N1CCC(n2c(=O)[nH]c3ccccc32)CC1` (stereo unspecified), the activation (PINK1 increase) is inactive: -0.217%.

On to `CCOC(=O)N1CCC(Nc2ccc(OC)cc2)CC1`, for which the activation (PINK1 increase) was inactive: -0.394%.

Take `O=C1CCN(Cc2ccccc2)CC1`: the activation (PINK1 increase) is inactive: 0.893%.

Take `O=C(NCC1(N2CCOCC2)CCCCC1)c1ccc(Cl)cc1`: the activation (PINK1 increase) was inactive: 1.04%.

Regarding `CC(C)(C)n1nnnc1C(c1ccccc1)N1CCC(n2c(=O)[nH]c3ccccc32)CC1` (stereo unspecified), the activation (PINK1 increase) was inactive: -0.303%.

As for `CCOc1ccc(C)cc1CN(CCCl)CCCl`, the activation (PINK1 increase) was inactive: 0.784%.

`COc1ccccc1C(=O)NCC1(N2CCOCC2)CCCCC1`: the activation (PINK1 increase) is inactive: -0.331%.

Turning to `COc1ccc(NC2CCN(CCc3ccccc3)CC2)c(OC)c1`, the activation (PINK1 increase) was inactive: 3.17% [at 38.3 µM].

Consider `CCOC(=O)N1CCC(Nc2ccc(F)cc2)CC1`, for which the activation (PINK1 increase) was inactive: 0.179%.

Take `CCCCn1nnnc1C(c1cc2ccccc2o1)N1CCC(n2c(=O)[nH]c3ccccc32)CC1` (stereo unspecified): the activation (PINK1 increase) is inactive: 1.91%.

On to `O=P1(N(CCCl)CCCl)SCCCS1`, for which the activation (PINK1 increase) is inactive: 1.6%.

On to `CCCCOc1ccc(C(=O)NCC2(N3CCOCC3)CCCCC2)cc1`, for which the activation (PINK1 increase) is inactive: 1.55%.

`O=C(NCC1(N2CCCCC2)CCCCC1)c1ccc(F)cc1`: the activation (PINK1 increase) was inactive: 0.758%.

In the case of `O=c1[nH]c2ccccc2n1C1CCN(C(c2ccccc2)c2nnnn2C2CCCCC2)CC1` (stereo unspecified), the activation (PINK1 increase) is inactive: 0.391%.

As to `CCOC(=O)N1CCC(Nc2cccc(C)c2)CC1`, the activation (PINK1 increase) was inactive: 2.99%.

Turning to `COc1cc(C(=O)NCC2(N(C)C)CCCCC2)ccc1OC(F)F`, the activation (PINK1 increase) is inactive: -0.364%.

Turning to `O=c1[nH]c2ccccc2n1C1CCN(C(c2cccc3ccccc23)c2nnnn2C2CCCC2)CC1` (stereo unspecified), the activation (PINK1 increase) is inactive: 0.365%.

In the case of `O=C(NCC1(N2CCCCC2)CCCCC1)c1ccc(OC(F)F)cc1`, the activation (PINK1 increase) was inactive: 1.65%.

For `CC(C)(C)n1nnnc1C(c1ccccc1OC(F)(F)F)N1CCC(n2c(=O)[nH]c3ccccc32)CC1` (stereo unspecified), the activation (PINK1 increase) was inactive: -0.63%.

Regarding `O=c1[nH]c2ccccc2n1C1CCN(C(c2ccccc2OC(F)(F)F)c2nnnn2C2CCCC2)CC1` (stereo unspecified), the activation (PINK1 increase) is inactive: 7.99%.

On to `N#CC1(Nc2ccccc2)CCN(CCc2ccccc2)CC1`, for which the activation (PINK1 increase) is inactive: -1.04%.

With `CCN1CCC(Nc2ccc(Cl)cc2)CC1`, the activation (PINK1 increase) was inactive: -1.62%.

Regarding `CCOc1ccc(C(=O)NCC2(N3CCOCC3)CCCCC2)cc1`, the activation (PINK1 increase) was inactive: -1.11%.

On to `O=C(NCC1(N2CCCCC2)CCCCC1)c1cccc([N+](=O)[O-])c1`, for which the activation (PINK1 increase) is inactive: -1.02%.

With `CSc1ccc(C(=O)NCC2(N3CCOCC3)CCCCC2)cc1`, the activation (PINK1 increase) is inactive: -0.324%.

Take `O=[N+]([O-])c1cc([N+](=O)[O-])c(NCC2CCS(=O)(=O)C2)c([N+](=O)[O-])c1` (stereo unspecified): the activation (PINK1 increase) was inactive: -1.39%.

For the molecule `CCCOc1cccc(C(=O)NCC2(N3CCOCC3)CCCCC2)c1`, the activation (PINK1 increase) is inactive: 0.179%.

As to `O=C(NCC1(N2CCCCC2)CCCCC1)c1cccc(C(F)(F)F)c1`, the activation (PINK1 increase) is inactive: 2.3%.

With `COc1cc(C(=O)NCC2(N3CCCCC3)CCCCC2)ccc1OC(F)F`, the activation (PINK1 increase) is inactive: 4.46%.

Turning to `O=C(NCC1(N2CCOCC2)CCCCC1)c1cc(=O)[nH]c2ccccc12`, the activation (PINK1 increase) is inactive: -1.52%.

Consider `CN1CCN(CCOC(=O)C(O)(c2ccccc2)c2ccccc2)CC1`, for which the activation (PINK1 increase) is inactive: -2.41%.

With `CC(C)c1ccc(C(=O)NCC2(N3CCOCC3)CCCCC2)cc1`, the activation (PINK1 increase) is inactive: -1.57%.

In the case of `COc1ccc(NC2CCN(C(=O)OC(C)(C)C)CC2)cc1`, the activation (PINK1 increase) is inactive: 1.58%.

As to `CCCCn1nnnc1C(c1cccc2ccccc12)N1CCC(n2c(=O)[nH]c3ccccc32)CC1` (stereo unspecified), the activation (PINK1 increase) was inactive: 1.86%.

On to `CCCCn1nnnc1C(c1ccccc1OC(F)(F)F)N1CCC(n2c(=O)[nH]c3ccccc32)CC1` (stereo unspecified), for which the activation (PINK1 increase) was inactive: 3.77%.

Turning to `CC(C)c1ccc(NC2CCN(C(=O)OC(C)(C)C)CC2)cc1`, the activation (PINK1 increase) is inactive: 14.3%.

Take `O=[N+]([O-])c1cc([N+](=O)[O-])c(OC2CCCCC2O)c([N+](=O)[O-])c1` (stereo unspecified): the activation (PINK1 increase) was inactive: 0.657%.

Consider `CN(C)c1cccc(C(=O)NCC2(N3CCCCC3)CCCCC2)c1`, for which the activation (PINK1 increase) was inactive: 1.08%.

Turning to `COc1ccc(CN(CCCl)CCCl)cc1Cl`, the activation (PINK1 increase) was inactive: 0.285%.

Turning to `CCC(c1nnnn1C(C)(C)C)N1CCC(n2c(=O)[nH]c3ccccc32)CC1` (stereo unspecified), the activation (PINK1 increase) is inactive: 4.63%.

With `O=C(NCC1(N2CCOCC2)CCCCC1)c1cc(F)c(F)cc1Cl`, the activation (PINK1 increase) is inactive: 2.12%.

Regarding `COc1cc(OC)c(C(=O)NCC2(N(C)C)CCCCC2)cc1OC`, the activation (PINK1 increase) was inactive: -0.0909%.

Consider `CCCCn1nnnc1C(c1ccnc2ccccc12)N1CCC(n2c(=O)[nH]c3ccccc32)CC1` (stereo unspecified), for which the activation (PINK1 increase) is inactive: -0.239%.

Turning to `O=C(OC1CN2CCC1CC2)c1ccc([N+](=O)[O-])cc1` (stereo unspecified), the activation (PINK1 increase) was inactive: 0.453%.

Regarding `CN1CCC(Nc2cccc(F)c2)CC1`, the activation (PINK1 increase) is inactive: 2.69%.

For the molecule `COc1ccc2c(c1O)-c1c(O)c(OC)cc3c1[C@H](C2)[N+](C)(C)CC3.O=[N+]([O-])c1cc([N+](=O)[O-])c([O-])c([N+](=O)[O-])c1[O-]`, the activation (PINK1 increase) was inactive: -0.442%.

Consider `O=C(NCC1(N2CCCCC2)CCCCC1)c1cncc(Br)c1`, for which the activation (PINK1 increase) was inactive: -1.42%.

For the molecule `COc1ccc(C(c2nnnn2C2CCCC2)N2CCC(n3c(=O)[nH]c4ccccc43)CC2)cc1` (stereo unspecified), the activation (PINK1 increase) is inactive: -0.263%.

`O=C(NCC1(N2CCOCC2)CCCCC1)c1ccccc1Br`: the activation (PINK1 increase) is inactive: -1.06%.

On to `CCCOc1ccc(C(=O)NCC2(N(C)C)CCCCC2)cc1OC`, for which the activation (PINK1 increase) was inactive: 0.657%.

With `CCCCOc1ccccc1C(=O)NCC1(N2CCOCC2)CCCCC1`, the activation (PINK1 increase) was inactive: -0.196%.

On to `Cc1ccc(C(=O)NCC2(N(C)C)CCCCC2)o1`, for which the activation (PINK1 increase) was inactive: 1.8%.

Turning to `COc1cc(C(=O)NCC2(N3CCOCC3)CCCCC2)cc(OC)c1C`, the activation (PINK1 increase) was inactive: 0.545%.

Regarding `CCCCn1nnnc1C(c1ccccc1)N1CCC(n2c(=O)[nH]c3ccccc32)CC1` (stereo unspecified), the activation (PINK1 increase) was inactive: -1.06%.

Regarding `O=C(NCC1(N2CCOCC2)CCCCC1)c1cc(Br)ccc1Cl`, the activation (PINK1 increase) was inactive: -0.252%.

For `O=Cc1ccc(N(CCCl)CCCl)cc1`, the activation (PINK1 increase) was inactive: 1.16%.

Turning to `O=c1[nH]c2ccccc2n1C1CCN(C(c2cccs2)c2nnnn2C2CCCCC2)CC1` (stereo unspecified), the activation (PINK1 increase) is inactive: 0.404%.

With `O=c1[nH]c2ccccc2n1C1CCN(C(c2ccnc3ccccc23)c2nnnn2C2CCCC2)CC1` (stereo unspecified), the activation (PINK1 increase) is inactive: -0.872%.

Turning to `COc1ccc(C(=O)NCC2(N3CCOCC3)CCCCC2)cc1OC`, the activation (PINK1 increase) is inactive: -1.36%.

Take `CCOC(=O)N1CCC(Nc2ccc(C)cc2)CC1`: the activation (PINK1 increase) is inactive: -0.811%.

With `COc1cccc(C(c2nnnn2C(C)(C)C)N2CCC(n3c(=O)[nH]c4ccccc43)CC2)c1OC` (stereo unspecified), the activation (PINK1 increase) is inactive: 3.62%.

Take `N/C(=N\O)c1c(N)no[n+]1[O-]`: the activation (PINK1 increase) is inactive: 0.945%.

As for `O=c1[nH]c2ccccc2n1C1CCN(C(c2cccs2)c2nnnn2C2CCCC2)CC1` (stereo unspecified), the activation (PINK1 increase) was inactive: 0.0509%.

In the case of `O=C(O)c1cccc(Nc2c([N+](=O)[O-])cc([N+](=O)[O-])cc2[N+](=O)[O-])c1`, the activation (PINK1 increase) was inactive: 1.4%.

Consider `CCc1cc(C(=O)NCC2(N3CCCCC3)CCCCC2)sc1C`, for which the activation (PINK1 increase) is inactive: 5.33%.

`O=C(OC1CN2CCC1CC2)C1c2ccccc2C=Cc2ccccc21` (stereo unspecified): the activation (PINK1 increase) is inactive: -1.05%.

With `CCCCn1nnnc1C(c1cccc(OC)c1OC)N1CCC(n2c(=O)[nH]c3ccccc32)CC1` (stereo unspecified), the activation (PINK1 increase) was inactive: -1.33%.

For `N#Cc1ccc(C(=O)NCC2(N3CCCCC3)CCCCC2)cc1`, the activation (PINK1 increase) is inactive: 1.47%.

Turning to `O=C(NCC1(N2CCOCC2)CCCCC1)c1ccccc1[N+](=O)[O-]`, the activation (PINK1 increase) was inactive: 2.33%.

`CC(C)(C)OC(=O)N1CCC(N(C(=O)c2ccccc2)c2ccc(Cl)cc2)CC1`: the activation (PINK1 increase) is inactive: 6.7%.

With `O=C(NCC1(N2CCOCC2)CCCCC1)c1ccc([N+](=O)[O-])cc1`, the activation (PINK1 increase) was inactive: 1.77%.
